PubChem BioAssay AID1346378 (National Center for Advancing Translational Sciences (NCATS), 2018)
Values joined by “and” are separate entries in the source; they are usually repeats but may differ in a detail not shown here. Identical values can stand only once. The entries are a selection whose mix differs from that of the whole data set. Some tests of the compounds listed are not included; inactive here does not mean inactive elsewhere. Active and inactive are the calls of the source. No stated cut-off is given here; in the data, active means activity change below about -50%; inconclusive means mostly about -30% to -49%; inactive means weaker than that.

Chains of the proteins cited; added tags and fusions are not shown.
UniProt Q9BTU6, whole entry: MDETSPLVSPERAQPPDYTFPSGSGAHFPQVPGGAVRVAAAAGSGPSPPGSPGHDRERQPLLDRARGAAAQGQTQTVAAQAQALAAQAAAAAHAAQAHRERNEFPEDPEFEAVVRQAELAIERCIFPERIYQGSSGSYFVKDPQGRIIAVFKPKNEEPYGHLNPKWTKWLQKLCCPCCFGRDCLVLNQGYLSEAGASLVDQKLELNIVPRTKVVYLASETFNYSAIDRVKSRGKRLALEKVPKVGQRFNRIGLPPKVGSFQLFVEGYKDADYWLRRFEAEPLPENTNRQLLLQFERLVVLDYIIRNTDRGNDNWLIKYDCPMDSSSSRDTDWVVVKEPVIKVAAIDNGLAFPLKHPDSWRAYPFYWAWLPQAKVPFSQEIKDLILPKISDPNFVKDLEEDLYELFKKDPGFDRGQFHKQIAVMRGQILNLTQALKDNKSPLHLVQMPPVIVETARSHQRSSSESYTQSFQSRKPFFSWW

Target: Phosphatidylinositol 4-kinase type 2-alpha (Homo sapiens) (UniProt Q9BTU6)
Test: qHTS for small molecular inhibitors of PI4K2A;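 further: -100% = wells without enzyme as full effect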
Conditions: purified PI4K2A, ADP-Glo luminescence, 1 h; at 76.9 µM; hits give low values
Description: The phosphatidylinositol 4-phosphate (PI4P) is emerging as a key regulator of lipid transfer in ER-membrane contact sites. The four different phosphatidylinositol 4-kinase (PI4K) enzymes generate PI4P in different membrane compartments supporting distinct cellular processes many of which are crucial for the maintenance of cellular integrity but also hijacked by intracellular pathogens. The goal of this screening project is to search for small molecular inhibitors of PI4K2A based on a high throughput screening strategy.The ADP-Glo assay was used as a starting point to develop a miniaturized version for HTS applications. To implement the HTS screen, the PI4K ADP-Glotrade mark Kinase assay (Promega, V9102) was miniaturized for the 1536-well format used at NCGC.
For the robotic screening, the ADP-Glo assay using the ADP-Glotrade mark Kinase Assay kit from Promega was miniaturized and optimized on 1536-well white solid bottom plates (Greiner Bio-one). The substrate, 1.2 mM PI, prepared in the assay buffer (40mM Tris pH7.5, 20mM MgCl2, 1mM EGTA, 0.4% Triton X-100, 0.5mM DTT, 0.5mg/ml BSA) and PI4K2A enzyme, diluted also in the assay buffer to 4ug/mL, were dispensed onto the plates in equal volumes (1microl/well), pinned with 23 nL/well tested compounds or control followed by dispensation of 1microl/well 300microM ATP. The plates were incubated for one hour. Then, 2 µL/well of ADP-Glo reagent was added and incubated for 40 minutes. Next, 4microL/well of Kinase Detection Buffer was added to the plates and incubated for additional 40 minutes. All incubation steps were performed at ambient temperature. The resulting luminescence signal was measured on Viewlux plate reader (PerkinElmer). Adenosine, a partial non-specific inhibitor, was used as a positive control at 100microM final concentration to assess the assay's quality and plate-to-plate reproducibility. We also used "no enzyme" control to gauge the assay's maximal potential inhibition (IC100).

SMILES	activity change, negative = inhibition
COc1cccc(C(=O)NCC2(N3CCCCC3)CCCCC2)c1	inactive: -1.46%
COc1ccc(Cl)cc1C(=O)NCC1(N(C)C)CCCCC1	inactive: 7.52%
COc1ccc(C(=O)NCC2(N(C)C)CCCCC2)cc1Cl	inactive: 0.835%
O=C(NCC1(N2CCCCC2)CCCCC1)c1cccc(Cl)c1	inactive: 6.55%
CN(C)C1(CNC(=O)c2ccc(Br)cc2)CCCCC1	inactive: -8.89%
COc1cc(C(=O)NCC2(N(C)C)CCCCC2)c([N+](=O)[O-])cc1OC	inactive: 4.68%
C=C(C)C#CC(O)(C(=O)OC1CCN(C)CC1)c1ccccc1 (stereo unspecified)	inactive: -6.21%
Cc1cccc(C(=O)NCC2(N(C)C)CCCCC2)c1	inactive: -1.69%
COc1cc(C(=O)NCC2(N(C)C)CCCCC2)cc(OC)c1OC	inactive: 1.94%
COc1ccc(Br)c(C(=O)NCC2(N3CCCCC3)CCCCC2)c1	inactive: -1.26%
CC(C)Oc1ccc(C(=O)NCC2(N(C)C)CCCCC2)cc1	inactive: 1.12% and inactive: -1.88%
O=C(OCCN1CCCC1)C(O)(c1ccccc1)c1ccccc1	inactive: 3.65%
CN(C)c1cccc(C(=O)NCC2(N(C)C)CCCCC2)c1	inactive: 5.29%
COc1cccc(C(=O)NCC2(N3CCOCC3)CCCCC2)c1	inactive: -5.03%
O=C(OC1CN2CCC1CC2)C(CO)(c1ccccc1)c1ccccc1 (stereo unspecified)	inactive: -1.26%
CC(C)COc1ccc(C(=O)NCC2(N(C)C)CCCCC2)cc1	inactive: -7.02%
CCN(CC)CC(C)C(C)OC(=O)C(O)(c1ccccc1)c1ccccc1 (stereo unspecified)	inactive: -1.41%
CN(C)C1(CNC(=O)c2cccc(Cl)c2)CCCCC1	inactive: -4.89%

SMILES	activity change, negative = inhibition
COc1cc(SC)ccc1C(=O)NCC1(N(C)C)CCCCC1	inactive: 0.448%
CC(C)N1C(=O)CC2(CCN(CCOC(=O)C(O)(c3ccccc3)c3ccccc3)CC2)C1=O	inactive: -1.37%
Cc1ccc(C(=O)NCC2(N3CCCCC3)CCCCC2)cc1	inactive: -0.0953%
CN(C)C1(CNC(=O)c2ccccc2F)CCCCC1	inactive: -7.25%
O=C(NCC1(N2CCCCC2)CCCCC1)c1cc([N+](=O)[O-])ccc1Cl	inactive: -4.46%
CN1[C@@H]2CC[C@H]1CC(OC(=O)C(O)(c1ccccc1)c1ccccc1)C2 (stereo partly specified)	inactive: -2.84%
C=CCN1CCN(CCOC(=O)C(O)(c2ccccc2)c2ccccc2)CC1	inactive: -3.71%
O=C(NCC1(N2CCCCC2)CCCCC1)c1cc(F)c(F)cc1Cl	inactive: 0.612%
COc1ccc(C(=O)NCC2(N(C)C)CCCCC2)cc1	inactive: 3.69%
CCOc1cccc(C(=O)NCC2(N(C)C)CCCCC2)c1	inactive: -1.7%
CCN1CCCC(OC(=O)C2(O)c3ccccc3C=Cc3ccccc32)C1 (stereo unspecified)	inactive: -2.5%
Cc1cc(C(=O)NCC2(N3CCCCC3)CCCCC2)ccc1[N+](=O)[O-]	inactive: 0.705%
O=C(NCC1(N2CCCCC2)CCCCC1)c1cccc(Br)c1	inactive: 2.84%
Cc1ccccc1C(=O)NCC1(N2CCCCC2)CCCCC1	inactive: -0.502%
CN(C)C1(CNC(=O)c2ccccc2[N+](=O)[O-])CCCCC1	inactive: -1.47%
CN(C)c1ccc(C(=O)NCC2(N(C)C)CCCCC2)cc1	inactive: 0.567%
CN(C)C1CCCC1OC(=O)C(O)(c1ccccc1)c1ccccc1 (stereo unspecified)	inactive: -0.134%
CCCCOc1ccccc1C(=O)NCC1(N(C)C)CCCCC1	inactive: -13.8%
